## Yeast mating assay B: variants of the scFv Ab-14

Reference: Li et al. 2023, doi:10.1038/s41467-023-39022-2. File: FLAb, binding data.

Target peptide (SARS-CoV-2 spike, HR2 region): PDVDLGDISGINAS

Each scFv is VH, three GGGGS repeats, VL, as in the parent Ab-14, and differs from it in the CDRs of the light chain only.
VH: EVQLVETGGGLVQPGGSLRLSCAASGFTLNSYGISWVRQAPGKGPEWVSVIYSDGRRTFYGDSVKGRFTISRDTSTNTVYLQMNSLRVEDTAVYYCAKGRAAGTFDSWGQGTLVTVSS
VL: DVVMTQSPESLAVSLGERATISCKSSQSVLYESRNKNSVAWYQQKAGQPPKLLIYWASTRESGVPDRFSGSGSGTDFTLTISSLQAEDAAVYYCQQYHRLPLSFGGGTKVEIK

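The parent was found by panning a naive human phage display library on the peptide. Designed CDR sequences, proposed from the first random library and measured here. Several design methods are mixed in this list. The scFvs were displayed on barcoded MATa yeast, the peptide on MATalpha yeast. The frequency of each diploid, read from paired DNA barcodes, reflects how well the two displayed proteins bind. Each replicate has its own calibration line, from reference interactions of the BCL2 family. The assay was run in six technical replicates.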

The whole VL of each variant is written out.
The Kd shown is the geometric mean over detected replicates; a lower Kd is a better binder.
An entry "not detected" has no value in the source: the pair was not observed among the diploids in any replicate. This suggests poor binding but is not conclusive.

VL | Kd | replicates with signal
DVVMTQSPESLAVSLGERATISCKSSISYEYESRNKNSVAWYQQKAGQPPKLLIYEASTRESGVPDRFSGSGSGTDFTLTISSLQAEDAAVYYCQQYHRMPLSFGGGTKVEIK | 1.8 nM | 6/6
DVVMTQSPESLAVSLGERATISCNLSGHQYNNSQKKNSIAWYQQKAGQPPKLLIYEDNNIRLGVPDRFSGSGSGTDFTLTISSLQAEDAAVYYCQQYHRLPFTFGGGTKVEIK | 550 nM | 5/6
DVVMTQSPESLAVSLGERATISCKVSQSVLMESRNCNSVAWYQQKAGQPPKLLIYDASTRESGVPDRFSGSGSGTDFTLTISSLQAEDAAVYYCQQYHRLPLSFGGGTKVEIK | 1.1 nM | 6/6
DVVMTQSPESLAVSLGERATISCKSSQSGLAESRQKNSVAWYQQKAGQPPKLLIYWASTREDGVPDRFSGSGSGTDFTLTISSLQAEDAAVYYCQQYHRLPLSFGGGTKVEIK | 220 nM | 6/6
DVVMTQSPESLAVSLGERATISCKVSQSVLYESRNKNSVAWYQQKAGQPPKLLIYWASTRLSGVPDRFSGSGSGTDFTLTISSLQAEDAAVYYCQQYHRLPLSFGGGTKVEIK | 5.0 nM | 6/6
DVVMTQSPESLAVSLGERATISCKHSQSVLYESRNKNSVAWYQQKAGQPPKLLIYWASTRESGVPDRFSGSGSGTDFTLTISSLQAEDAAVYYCQQAHRLPLSFGGGTKVEIK | not detected | 0/6
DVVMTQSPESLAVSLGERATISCKLSQSHLYESRNSNNVAWYQQKAGQPPKLLIYMASYRMDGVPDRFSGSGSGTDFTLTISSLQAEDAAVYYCQQYHRLPLSFGGGTKVEIK | 2.0 nM | 6/6
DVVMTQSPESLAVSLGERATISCKVQQSVLYESRNKNSVAWYQQKAGQPPKLLIYEASTRESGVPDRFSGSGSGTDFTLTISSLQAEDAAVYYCQQYHRLPLSFGGGTKVEIK | 750 pM | 6/6
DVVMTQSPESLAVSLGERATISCKSEQSVLYESFNKNSVAWYQQKAGQPPKLLIYWASTRESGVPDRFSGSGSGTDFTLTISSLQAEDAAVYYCQQYYRLPLSFGGGTKVEIK | 4.5 nM | 6/6
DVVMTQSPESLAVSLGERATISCMVTQMAMTGMMSKRSVAWYQQKAGQPPKLLIYNATTREEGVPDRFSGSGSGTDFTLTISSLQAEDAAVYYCQQYHRLPLIFGGGTKVEIK | not detected | 0/6
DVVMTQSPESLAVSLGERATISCKSSQSVLYESLNKNSVAWYQQKAGQPPKLLIYWASTRHSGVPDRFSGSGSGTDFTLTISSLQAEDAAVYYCQQYHRMPLSFGGGTKVEIK | 360 nM | 1/6
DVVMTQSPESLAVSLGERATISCKISMLYNYASTNKNNIAWYQQKAGQPPKLLIYEMTTRESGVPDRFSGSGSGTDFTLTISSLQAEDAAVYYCQHYHRLPLSFGGGTKVEIK | 280 nM | 5/6
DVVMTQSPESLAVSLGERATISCKSSQSVLNESRNKNSVAWYQQKAGQPPKLLIYWASTRLSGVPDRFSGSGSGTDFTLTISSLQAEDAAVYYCQQYHRLHLSFGGGTKVEIK | not detected | 0/6
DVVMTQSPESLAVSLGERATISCTLDLWTSYGNGLNKAIAWYQQKAGQPPKLLIYDVSIKDYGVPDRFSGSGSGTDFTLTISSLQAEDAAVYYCQQYARLPLLFGGGTKVEIK | 36 nM | 5/6
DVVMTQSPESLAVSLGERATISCTLTGAMQTQMHNKNSVAWYQQKAGQPPKLLIYDLTTRNNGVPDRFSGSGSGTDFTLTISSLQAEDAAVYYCQQYHRLPLSFGGGTKVEIK | 1.6 nM | 6/6
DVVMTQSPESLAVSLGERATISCKESQSELYESAAKNSVAWYQQKAGQPPKLLIYNAMQRMSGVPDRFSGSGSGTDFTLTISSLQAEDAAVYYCQQYHRLPLSFGGGTKVEIK | 360 pM | 6/6
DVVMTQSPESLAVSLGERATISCKWSQSVLYESRNKNSVAWYQQKAGQPPKLLIYGASTREFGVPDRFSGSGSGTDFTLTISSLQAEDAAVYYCQQYHRHPLSFGGGTKVEIK | 2.0 µM | 3/6

The range of this assay differs from that of the first round, and the authors advise against merging the two.
The authors averaged sequences with at least three values out of six and counted those with two or fewer as poor binders.
As a blank, each scFv also met three strains without target: over all light chain designs, 4% of these pairings were detected, typically at 430 nM and seldom below 38 nM.